# Experimental data taken from US20260279694A1, “ELECTROLYTE SOLUTION FOR HYBRID ELECTROLYTIC CAPACITORS AND HYBRID ELECTROLYTIC CAPACITOR” (SANYO CHEMICAL INDUSTRIES, LTD., priority 2023, published 2026).
# Assay: Measurement of acid dissociation constant (pKa) by titration in methanol
# Assay type: physicochemical
# Conditions: 25° C.; 1 part by weight acid in 99 parts methanol titrated with 0.1 mol/L methanolic potassium hydroxide; pH at half the titrant of first equivalence point
# Procedure: At 25° C., 99 parts by weight of methanol was added to 1 part by weight of a carboxylic acid (A), and the contents were shaken and mixed until the carboxylic acid (A) was completely dissolved. A 0.1 mol/L methanolic potassium hydroxide solution was added dropwise to the resulting methanol solution of the carboxylic acid (A) to obtain a titration curve having inflection points, and among the inflection points, an inflection point at which the amount of titrant added was the smallest was defined as an equivalence point. The pH at half the amount of titrant added at the equivalence point on the obtained titration curve was read, and the pH was defined as the acid dissociation constant (pKa) of the carboxylic acid (A).
# The pKa of the acid component (A′) was also measured in the same manner as the pKa of the carboxylic acid (A).
row,Substance,Acid dissociation constant (pKa)
1,phthalic acid glycerol monoester [Example A12],3.7
2,phthalic acid polyethylene glycol monoester [Example A9],4.2
3,phthalic acid polypropylene glycol monoester [Example A8],3.9
4,trimellitic acid ethylene glycol monoester [Example A3],3.4
